By UniProt entry, the sequences of proteins in these tests, tags left out.
UniProt Q14145, whole entry: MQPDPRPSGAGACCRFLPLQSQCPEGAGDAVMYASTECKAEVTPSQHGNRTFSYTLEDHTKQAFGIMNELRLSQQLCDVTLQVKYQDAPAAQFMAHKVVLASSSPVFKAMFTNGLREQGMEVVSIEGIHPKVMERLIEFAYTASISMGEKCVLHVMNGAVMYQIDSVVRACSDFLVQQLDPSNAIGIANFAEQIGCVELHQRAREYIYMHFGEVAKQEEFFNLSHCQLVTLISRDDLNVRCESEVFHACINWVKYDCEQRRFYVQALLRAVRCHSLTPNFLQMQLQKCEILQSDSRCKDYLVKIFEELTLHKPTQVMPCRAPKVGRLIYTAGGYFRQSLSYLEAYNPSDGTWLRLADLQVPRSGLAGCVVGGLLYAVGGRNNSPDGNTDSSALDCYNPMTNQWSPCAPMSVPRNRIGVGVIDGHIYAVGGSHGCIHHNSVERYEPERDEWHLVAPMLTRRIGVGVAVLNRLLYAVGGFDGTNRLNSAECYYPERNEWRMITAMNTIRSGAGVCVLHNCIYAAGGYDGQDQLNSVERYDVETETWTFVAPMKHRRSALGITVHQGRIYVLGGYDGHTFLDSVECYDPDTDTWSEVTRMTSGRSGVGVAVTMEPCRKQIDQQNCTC
UniProt Q16236, whole entry partner: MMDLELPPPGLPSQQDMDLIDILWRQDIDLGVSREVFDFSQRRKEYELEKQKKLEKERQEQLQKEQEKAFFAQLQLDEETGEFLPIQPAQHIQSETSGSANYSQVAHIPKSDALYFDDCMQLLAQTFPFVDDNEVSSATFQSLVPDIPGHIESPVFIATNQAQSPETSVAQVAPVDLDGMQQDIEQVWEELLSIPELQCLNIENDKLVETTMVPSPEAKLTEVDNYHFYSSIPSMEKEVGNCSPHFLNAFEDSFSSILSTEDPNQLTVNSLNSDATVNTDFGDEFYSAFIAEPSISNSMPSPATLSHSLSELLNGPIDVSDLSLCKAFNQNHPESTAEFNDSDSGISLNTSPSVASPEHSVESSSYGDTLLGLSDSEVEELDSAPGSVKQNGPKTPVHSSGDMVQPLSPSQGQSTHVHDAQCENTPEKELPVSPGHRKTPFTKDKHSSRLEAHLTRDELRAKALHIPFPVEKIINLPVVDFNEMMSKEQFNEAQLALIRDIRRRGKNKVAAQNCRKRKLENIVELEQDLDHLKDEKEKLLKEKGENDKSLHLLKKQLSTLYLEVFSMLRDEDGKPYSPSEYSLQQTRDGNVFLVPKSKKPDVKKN

This is a selection; strong and weak results do not stand in their true shares. Calls of active or inactive are those of the source. Cut-off read from the data, not from the text of the source: active = inhibition above about 12%; inconclusive = no clear call, values can overlap the other calls; inactive = below about 7.3%.
What follows are compounds tested against Kelch-like ECH-associated protein 1 (Homo sapiens) (UniProt Q14145) (assay: Keap1-Nrf2 protein-protein interaction inhibitors, primary screen, biochemical, fluorescence polarization, single point (AID 504523;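 note: human Keap1 Kelch domain with fluorescein labeled Nrf2 9mer peptide probe; 0% = neutral control wells and 100% = peptide positive control; higher means more block of Keap1 binding to Nrf2 peptide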)). Settings: Keap1 Kelch-Nrf2 peptide fluorescence polarization, 1536-well; at 9.4 µM; active compounds read high.
In the case of CCC(=O)N(c1ccccc1)C1(COC)CCN(CCn2nnn(CC)c2=O)CC1, the inhibition is reported as inactive: -0.17%.
In the case of CCC(=O)N(c1ccccc1)C1(COC)CCN(CCc2cccs2)CC1, the inhibition is reported as inactive: -0.242%.
